What was measured:
[1] = system: IL-10 secretion; assay: IL-10 secretion by human peripheral T-cells (sandwich ELISA); assay type: cell-based
Description: The results are expressed as pg/ml IL-10. […] Immunostaining is with intracellular anti-IL-10 FITC conjugated (FL-1) and anti-CD4 PE conjugated (FL-2) antibodies, as described in Materials and Methods hereinbelow.
(§1) The results are expressed as pg/mi.
(§2) The results are expressed as pg/ml.
as §2, §2

[2] = system: TNFα secretion; assay: TNFα secretion by human peripheral T-cells (sandwich ELISA); assay type: cell-based
Description: as §2, §1, §2, §2, §2

`CCCN1CCC[C@@H]2Cc3n[nH]cc3C[C@H]21` [Quinpirole] was tested. Which “induction of IL-10 secretion by receptor-specific Dopamine agonists” value [1] did it give?
The value was “induced by the D2”.

And the “induction of TNFα secretion by receptor-specific Dopamine agonists” value [2]?
Its value is “induced by D1 and D2”.

Reference: patent US20050163773A1, “Methods and pharmaceutical compositions for dopaminergic modulation of t-cell adhesion and activity” (priority 2001, published 2005)
